Reference: ChEMBL document CHEMBL3244331, “2,6-Methano-3-benzazocine-11-ropanols. Lack of antagonism between optical antipodes and observation of potent narcotic antagonism by two n-methyl derivatives” (1978)
Values joined by “and” are separate entries in the source; they are usually repeats but may differ in a detail not shown here. Identical values can stand only once.

What was measured:
Rattus norvegicus [1] = assay: Narcotic antagonist activity in sc dosed rat assessed as antagonism of phenazocine response by tail flick assay
Rattus norvegicus [2] = organism: Rattus norvegicus; assay: Ratio of nalorphine AD50 to compound AD50 for antagonism of phenazocine response in rat
Mus musculus = assay: Narcotic agonist activity in sc dosed mouse by acetylcholine writhing test

SMILES | AD50 (Rattus norvegicus [1]) | Ratio (Rattus norvegicus [2]) | ED50 (Mus musculus)
CC(C)CCC(C)(O)CC[C@]1(C)[C@H]2Cc3ccc(O)cc3[C@@]1(C)CCN2C (stereo partly specified) | 0.032 mg/kg and 0.02 mg/kg | 3 and 5 | 22 mg/kg and 14 mg/kg
C=CCN1CC[C@]23c4c5ccc(O)c4O[C@H]2[C@@H](O)C=C[C@H]3[C@H]1C5 | 0.1 mg/kg | – | 2.8 mg/kg
CO[C@@]12CC[C@@]3(C[C@@H]1[C@](C)(O)C(C)(C)C)[C@H]1Cc4ccc(O)c5c4[C@@]3(CCN1CC1CC1)[C@H]2O5 | – | – | 0.058 mg/kg
